Source: patent publication US20120082677A1, “COMPOSITIONS FOR THE TREATMENT OF HCV AND HBV” (priority 2010, published 2012)

Assay: Experiment 7 (second): injection in white mice for about 15 days
Type: in vivo
Conditions: 5 per group, injected for about 15 days
Procedure: Experimental animals: We classified 20 white mice in 4 groups every group has 5 mice. Every component of the mixture (antistreptolysin antibodies; antistreptokinase antibodies; and tranexamic acid) is injected separately in the 1st, 2nd and 3rd groups while the 4th group is injected with the mixture of the three components, for about 15 days for all group.

NC[C@H]1CC[C@H](C(=O)O)CC1 [tranexamic acid]
side effects or toxic effects: No side effects or toxic effects were detected
